# Measured values: patent US20250296958A1, “GL[…] E[…]” (THE ADMINISTRATORS OF THE TULANE EDUCATIONAL FUND, priority 2022, published 2025)
# Biological target: mu opioid receptor, P35372
# Assay: PDSP receptor binding; log of Ki in M
binder,measurement,value
YKWFEG (modifications not checked) [ZH853],Log Ki,-9.03
